Measured values taken from patent US20220088204A1, “ANTICANCER DRUGS AND METHODS OF MAKING AND USING SAME” (YALE UNIVERSITY, priority 2019, published 2022).

Assays:
[1] = test system: MDA-MB-231 breast cancer cells; test: pH-dependent cell growth inhibition, CellTiter-Glo; format: cell-based, Human; conditions: 6 hours treatment, 72 hours growth
Description: FIG. 6 depicts pH-dependent cell growth inhibition of MDA-MB-231 breast cancer cells in culture, treated transiently with Drug (in this case doxorubicin HCl) or various prodrugs of the invention. Cells treated for 6 hours at pH 7.4 (normal physiological pH, X traces) or pH 6.2 (acidic solid tumor pH, Y traces) were subsequently allowed to grow in normal growth medium for 72 hours, then cell viability was evaluated using the CellTiter-Glo assay kit (Promega). Normalized percent cell growth inhibition is plotted on the left side of each panel and IC50 values reported at each pH from non-linear regression analysis.
In order to evaluate pH-dependent activity, treatments are performed at atypical cell culture conditions. […] Several cell lines have been evaluated using this method and for each, cell seeding density and treatment duration is independently experimentally determined. Each experiment is normalized to sham and complete activity controls for each pH condition.
Human MDA-MB-231 breast cancer cells seeded at low density on tissue culture treated 384-well plates, allowed to adhere and grow in serum-supplemented growth medium for 24 hours, then treated under pH-controlled conditions for 6 hours, and finally washed and grown in fresh growth media for 72 hours were assessed for cell survival using the CellTiter-Glo assay system (Promega) (FIG. 6).

[2] = following intravenous injection; cited from earlier work

## COc1cccc2c1C(=O)c1c(O)c3c(c(O)c1C2=O)C[C@@](O)(C(=O)CO)C[C@@H]3O[C@H]1C[C@H](N)[C@H](O)[C@H](C)O1 [doxorubicin, reference compound]
[1]
  fold lower IC50 value in cells treated at pH 7.4 than at pH 6.2: > 15 fold
[2]
  t1/2 of distribution from the blood into tissues: ~5 min
